Only some compounds are listed: those with a hit (about 2.8% of all), similar ones and a draw of the others.
miR122 inh – blocks miR-122 activity in Huh7 sensor cells; Huh7 miR-122 Renilla luciferase sensor, 48 h; neutral wells = 0, positive control = 100; activation (reporter increase), % at 12.5 µM; 340,000 compounds, 0.3% hits;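 active means mean replicate activation score at least 90 and every replicate individually at or above 90; inconclusive means only one of the two criteria met; inactive means neither criterion met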;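 further: higher luciferase means less miR-122 activity so hits act as miR-122 inhibitors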
MITF TRPM1 HTS – increases MITF-driven TRPM1 promoter luciferase signal. 300,000 compounds, 0.75% hits. AID 588334. activation, % at 12.5 µM. SK-MEL-5 TRPM1-promoter luciferase, 24 h; % of positive control, neutral wells = 0;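 active means mean activation of at least 80% with every replicate also reaching 80%; inconclusive means mean reaches 80% but some replicate falls short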
Yeast UUG start – modulators of yeast start codon fidelity, primary screen, whole organism, S. cerevisiae, single point, plate reader | AID 602363, 2012 | actives 0.13% (n = 350,000) | activity score, % at 18.7 µM | S. cerevisiae UUG-firefly luciferase reporter, luminescence/redox ratio;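 active means replicate mean at a twofold rise or more, about +100% in these data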;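 further: firefly luciferase made from a UUG start codon reports start codon fidelity; reporter light over untreated wells divided by growth signal over untreated wells; some hits fall short of that in this replicate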
Wnt bcat act – Wnt/beta-catenin pathway activation; Wnt/beta-catenin reporter cell assay, activator, plate reader; activation, % at 9.35 µM; 300,000 compounds, 1.2% hits; in the data active means activation above about 30%, passing the limit was not always enough; inconclusive means no clear call, values can overlap the other calls
PglD inh – blocks C. jejuni PglD acetyltransferase activity; 360,000 compounds, 0.098% hits; inhibition, % at 12.5 µM; purified PglD enzyme, DTNB colorimetric CoA detection; in the data active means inhibition above about 16%, passing the limit was not always enough; inconclusive means no clear call, values can overlap the other calls
esBAF inh – inhibitors of esBAF chromatin remodeling in mouse ES cells | 350,000 compounds, 2% hits | Bmi1-luciferase knock-in reporter, 24 h; 100% = twice the neutral-well signal | reporter increase, % at 12.5 µM | AID 602393; in the data active means activation above about 40%; inconclusive means no clear call, values can overlap the other calls;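 further: a rise in the Bmi1 reporter signal indicates esBAF inhibition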
A number is an active result; - = inactive; ? = inconclusive; . = no result.

SMILES | miR122 inh | MITF TRPM1 HTS | Yeast UUG start | Wnt bcat act | PglD inh | esBAF inh
Cc1cccc(-c2nc(C#N)c(N3CCCCC3)o2)c1 | . | - | - | - | - | 50.0
O=C(C[C@@H]1CC[C@@H](NS(=O)(=O)c2ccccc2)[C@@H](CO)O1)NCc1ccccc1F | . | . | - | . | - | -
CO[C@@H]1CN(C)C(=O)c2ccc(NS(C)(=O)=O)cc2OC[C@@H](C)N(CCC(F)(F)F)C[C@H]1C | . | . | - | . | - | -
Cc1ccc(C)c(NC(=S)c2ccc3ccccc3n2)c1 | - | - | - | - | - | 75.6
Cc1ccc(C)c(NC(=S)c2ccccn2)c1 | - | - | - | 36.3 | - | 46.4
CN1C(=O)c2cc(NC(=O)c3ccc(C(F)(F)F)cc3)ccc2OC[C@H]2O[C@@H](CC(=O)O)CC[C@H]21 | - | . | - | . | - | -
O=C(NC(=S)Nc1ccc(N2CCOCC2)cc1)c1cccc(Cl)c1 | . | - | . | - | . | .
Cn1cccc1C(=O)Nc1ccc(N2CCOCC2)cc1 | . | - | - | 38.5 | - | -
O=C(Nc1ccc(N2CCOCC2)cc1)c1ccncc1 | - | - | - | - | - | -
O=C(NC(=S)Nc1ccc(N2CCOCC2)cc1)c1ccccc1 | - | - | - | - | - | 52.7
O=C(C[C@H]1CC[C@@H]2[C@H](COC[C@@H](O)CN2S(=O)(=O)c2cccc(F)c2)O1)NCCCN1CCOCC1 | - | . | - | . | - | -
CC(=O)N(C)c1ccc(NCc2cc(=O)oc3cc(C)c(O)cc23)cc1 | - | - | - | - | - | 80.1
Cc1ccc(S(=O)(=O)NC23CC4CC(CC(C4)C2)C3)cc1 | 106.4 | - | - | - | - | -
C(=N\Nc1ccccc1)/c1ccc(N2CCOCC2)cc1 | - | 108.9 | - | . | - | -
O=C(O)c1cc(N/N=C/c2ccc(N3CCOCC3)cc2)ccc1Cl | - | - | - | 37.2 | - | -
Clc1cccc(N/N=C/c2ccc(N3CCOCC3)cc2)c1 | - | ? | - | - | - | -
Cc1ccc(S(=O)(=O)NN=Cc2ccc(N3CCOCC3)cc2)cc1[N+](=O)[O-] | - | . | - | - | - | -
O=[N+]([O-])c1cccc(N/N=C/c2ccc(N3CCOCC3)cc2)c1 | . | 126.7 | - | - | - | 66.1
C[C@@H]1CN([C@H](C)CO)C(=O)Cc2cc(NC(=O)CCN3CCOCC3)ccc2O[C@@H]1CN(C)Cc1ccncc1 | - | . | . | . | - | -
COc1ccc(S(=O)(=O)N[C@H]2C=C[C@@H](CC(=O)NCCc3ccncc3)O[C@@H]2CO)cc1 | . | . | . | . | - | -
CC(C)Cn1cnc2c(SCc3ccccn3)nc(N)nc21 | . | - | - | - | - | -
CCCCn1cnc2c(SCCc3ccccc3)nc(N)nc21 | - | - | - | - | - | .
CCCn1cnc2c(SCCc3ccccc3)nc(N)nc21 | - | - | - | - | - | 61.3
CCCCn1cnc2c(SCc3ccccc3F)nc(N)nc21 | - | - | . | - | . | 49.7
CC(C)Cn1cnc2c(SCc3ccccc3)nc(N)nc21 | - | - | - | - | - | 75.7
SMILES | miR122 inh | MITF TRPM1 HTS | Yeast UUG start | Wnt bcat act | PglD inh | esBAF inh
CCCn1cnc2c(SCc3ccccc3Cl)nc(N)nc21 | . | - | - | - | - | 48.0
O=C(C[C@@H]1CC[C@@H](NS(=O)(=O)c2ccc(F)cc2)[C@H](CO)O1)NC1CCCCC1 | . | . | - | . | - | -
CC(=O)Nc1cccc2c1Cc1ccccc1-2 | - | . | - | . | - | 51.3
CC(=O)Nc1cccc2c1Cc1cc([N+](=O)[O-])ccc1-2 | - | - | . | - | . | .
CC(C)NC(=O)Nc1ccc2c(c1)CC(=O)N([C@H](C)CO)C[C@@H](C)[C@@H](CN(C)C(=O)Nc1ccc(F)cc1)O2 | - | . | - | . | - | -
O=C(NC(=S)Nc1cc(C(F)(F)F)ccc1Cl)c1ccccc1 | - | - | - | . | - | -
O=C(O)c1ccc(NNC(=S)Nc2cc(C(F)(F)F)ccc2Cl)cc1 | . | . | - | - | - | 54.4
C[C@H]1CN([C@@H](C)CO)C(=O)c2c(c3ccccc3n2C)-c2ccccc2CO[C@@H]1CN(C)C(=O)Nc1ccccc1 | . | . | - | . | - | -
CCCc1cc(NCCCn2ccnc2)n2nc(C)c(-c3ccccc3)c2n1 | . | - | . | 32.2 | . | .
CC(C)(C)c1cc(NCCCn2ccnc2)n2ncc(-c3ccccc3)c2n1 | - | . | - | 52.5 | - | .
Cc1cc(NCCCn2ccnc2)n2ncc(-c3ccc(Cl)cc3)c2n1 | - | - | - | . | - | -
O=C(C[C@@H]1CC[C@@H]2[C@H](COC[C@@H](O)CN2Cc2ccccc2F)O1)N1CCc2ccccc2C1 | - | . | - | . | - | -

Source: PubChem (Broad Institute)
